Test results: PubChem BioAssay AID1203 (The Scripps Research Institute Molecular Screening Center, 2008)
Only a part is listed here, and it is no random draw. Active and inactive are the calls of the source.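 Rule for the calls: active = activation above the mean across all tested compounds plus 3 SD, cutoff set per campaign (cut at about 5.5% in these data); inactive = the rest.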

Experiment: Hsp70 transcriptional activators, primary screen, cell-based, HeLa, Hsp70 promoter luciferase, luminescence, 10 µM (AID 1203);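 note: 100% = MG132 at 30 µM as the positive control and 0% = DMSO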
Settings: HeLa Hsp70 promoter luciferase reporter, at 10 µM, active compounds read high, scaled: vehicle 0, proteasome-inhibitor control 100%

Structure (SMILES) | activation
CCOc1ncccc1C(=O)NCC1(N2CCOCC2)CCCCC1 | inactive: -0.06%
CC(C)(C)OC(=O)N1CCC(Nc2ccccc2)CC1 | inactive: -0.16%
CCC(CO)(C(=O)OC1CN2CCC1CC2)c1ccccc1 (stereo not given) | inactive: -0.01%
COc1cc(OC)cc(C(=O)NCC2(N3CCOCC3)CCCCC2)c1 | inactive: 0.07%
CCN1CCC(Nc2cccc(F)c2)CC1 | inactive: -0.51%
CN(C)c1ccc(C(=O)NCC2(N3CCCCC3)CCCCC2)cc1 | inactive: -0.05%
N#Cc1ccc(C(=O)NCC2(N3CCCCC3)CCCCC2)cc1 | inactive: -0.12%
c1ccc(CN2CCC(Nc3ccccc3)CC2)cc1 | inactive: -0.29%
COc1ccc(C(=O)NCC2(N3CCOCC3)CCCCC2)cc1OC | inactive: -0.07%
N/C(=N\O)c1c(N)no[n+]1[O-] | inactive: 0.08%
O=C(OC1CN2CCC1CC2)C1c2ccccc2C=Cc2ccccc21 (stereo not given) | inactive: -0.03%
CN(C)c1cccc(C(=O)NCC2(N3CCCCC3)CCCCC2)c1 | inactive: 1.31%
COc1ccc(CN(CCCl)CCCl)cc1Cl | inactive: -0.29%
CC(C)c1ccc(NC2CCN(C(=O)OC(C)(C)C)CC2)cc1 | inactive: 0.17%
CN1CCC(Nc2cccc(F)c2)CC1 | inactive: -0.29%
O=C(NCC1(N2CCCCC2)CCCCC1)c1cccc([N+](=O)[O-])c1 | inactive: -0.16%
N#CC1(Nc2ccccc2)CCN(CCc2ccccc2)CC1 | inactive: -0.17%
COc1ccc(NC2CCN(C(=O)OC(C)(C)C)CC2)cc1 | inactive: -0.21%
CN1CCN(CCOC(=O)C(O)(c2ccccc2)c2ccccc2)CC1 | inactive: -0.2%
O=C(NCC1(N2CCOCC2)CCCCC1)c1cc(=O)[nH]c2ccccc12 | inactive: -0.18%
COc1ccc(NC2CCN(CCc3ccccc3)CC2)c(OC)c1 | inactive: 0.3%
COc1ccc(C(=O)NCC2(N3CCCCC3)CCCCC2)c(OC)c1OC | inactive: 0.27%
O=C(NCC1(N2CCOCC2)CCCCC1)c1cc2ccccc2o1 | inactive: 0.1%
CCOC(=O)N1CCC(Nc2ccc(OC)cc2)CC1 | inactive: -0.18%
O=C(OC1CN2CCC1CC2)C1c2ccccc2Oc2ccccc21 (stereo not given) | inactive: -0.07%
